Protein sequences, listed by entry. Tags and fused reporters are not part of them. Residues count along the entry.
UniProt P05556, 21-798 limits assumed: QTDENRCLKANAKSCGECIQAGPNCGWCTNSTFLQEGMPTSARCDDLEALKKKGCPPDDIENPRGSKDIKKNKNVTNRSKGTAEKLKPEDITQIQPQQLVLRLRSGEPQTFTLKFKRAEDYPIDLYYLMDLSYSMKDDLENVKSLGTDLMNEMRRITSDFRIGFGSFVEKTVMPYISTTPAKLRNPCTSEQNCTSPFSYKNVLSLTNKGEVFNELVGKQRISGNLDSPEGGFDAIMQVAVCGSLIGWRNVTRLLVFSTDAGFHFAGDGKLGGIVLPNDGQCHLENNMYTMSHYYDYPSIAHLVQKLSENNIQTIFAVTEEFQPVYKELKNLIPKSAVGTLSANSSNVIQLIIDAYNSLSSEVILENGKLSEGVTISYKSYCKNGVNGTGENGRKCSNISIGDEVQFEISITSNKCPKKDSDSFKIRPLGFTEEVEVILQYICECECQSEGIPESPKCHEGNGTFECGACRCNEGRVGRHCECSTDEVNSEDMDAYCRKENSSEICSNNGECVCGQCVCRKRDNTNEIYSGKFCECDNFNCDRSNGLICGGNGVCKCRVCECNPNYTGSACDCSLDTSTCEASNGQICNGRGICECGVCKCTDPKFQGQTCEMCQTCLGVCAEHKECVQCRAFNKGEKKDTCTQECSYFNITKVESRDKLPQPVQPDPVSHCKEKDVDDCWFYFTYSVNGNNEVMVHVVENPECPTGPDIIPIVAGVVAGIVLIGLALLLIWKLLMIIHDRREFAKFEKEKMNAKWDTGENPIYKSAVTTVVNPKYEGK
UniProt P13612, 34-1032 limits assumed: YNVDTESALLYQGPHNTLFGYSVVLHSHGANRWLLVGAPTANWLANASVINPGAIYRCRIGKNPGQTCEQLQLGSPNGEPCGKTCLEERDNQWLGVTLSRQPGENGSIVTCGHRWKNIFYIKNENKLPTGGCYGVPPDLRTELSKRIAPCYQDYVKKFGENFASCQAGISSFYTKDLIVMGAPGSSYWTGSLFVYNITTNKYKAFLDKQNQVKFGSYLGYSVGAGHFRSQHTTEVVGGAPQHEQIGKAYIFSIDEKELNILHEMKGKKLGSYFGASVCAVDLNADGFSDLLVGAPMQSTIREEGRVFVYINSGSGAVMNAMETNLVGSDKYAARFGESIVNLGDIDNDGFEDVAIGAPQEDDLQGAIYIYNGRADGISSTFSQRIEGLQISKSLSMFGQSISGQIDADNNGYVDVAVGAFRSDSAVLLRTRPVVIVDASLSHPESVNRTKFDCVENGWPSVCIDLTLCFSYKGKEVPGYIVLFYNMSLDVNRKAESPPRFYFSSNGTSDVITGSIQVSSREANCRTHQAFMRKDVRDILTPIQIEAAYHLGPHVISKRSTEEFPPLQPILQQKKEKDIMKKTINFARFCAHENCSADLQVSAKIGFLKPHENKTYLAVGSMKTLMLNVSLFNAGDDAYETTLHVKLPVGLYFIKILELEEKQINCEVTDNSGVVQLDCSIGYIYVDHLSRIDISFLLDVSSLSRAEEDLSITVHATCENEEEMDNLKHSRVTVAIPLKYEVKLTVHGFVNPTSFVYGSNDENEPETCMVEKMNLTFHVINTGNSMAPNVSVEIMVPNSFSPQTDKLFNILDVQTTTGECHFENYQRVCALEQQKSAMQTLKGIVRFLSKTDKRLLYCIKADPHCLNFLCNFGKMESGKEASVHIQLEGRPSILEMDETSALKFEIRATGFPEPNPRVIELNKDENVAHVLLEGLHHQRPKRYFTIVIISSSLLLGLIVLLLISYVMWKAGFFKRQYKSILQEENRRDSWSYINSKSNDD

According to patent publication US6685617B1, “Inhibitors of α4β1 mediated cell adhesion” (Pharmacia & Upjohn Company, priority 1998, dated 2004):

Tests used:
[1] = target: α4β1 integrin (Jurkat T-cell adhesion to IL-1 stimulated endothelial cell monolayers) (Homo sapiens, UniProt P05556+P13612); test: Jurkat-endothelial cell adhesion assay (Jurkat EC); conditions: read-out: JK/EC (Jurkat EC Assay IC50 value range); Jurkat cells on IL-1 stimulated human umbilical vein endothelial cells
Description: Jurkat-endothelial Cell Adhesion Assay:
The following assay established the activity of the present compounds in inhibiting β1-mediated cell adhesion in a representative in vitro system. This assay measures the adhesive interactions of a T-cell line, Jurkat, known to express the α4β1 integrin, to endothelial monolayers in the presence of test compounds. The test compounds were added in increasing concentrations to T-cells and then the T-cell compound mixture was added to IL-1 stimulated endothelial cell monolayers. The plates were incubated, washed and the percentage of attached cells was quantitated. […]
Confluent endothelial monolayers, grown in 96-well tissue culture plates, were stimulated for 4 hr. at 37° C. with 0.1 ng/ml (˜50 U/ml) recombinant IL-1 (Amgen, Thousand Oaks, Calif.). […] Following this incubation, the monolayers were washed twice with PBS containing 1 mM calcium chloride and 1 mM magnesium chloride and the plates were read using a Millipore Cytofluor 2300 (Marlboro, Mass.). Fluorescence in each well was measured as Arbitrary Fluorescence Units and percent adhesion in the absence of compound was adjusted to 100% and the % adhesion in the presence of compound was calculated. Monolayers were also fixed in 3% paraformaldehyde and evaluated microscopically to verify the adhesion. […]

[2] = target: α4β1 integrin (Jurkat cell adhesion to immobilized CS-1 derived peptide CLHPGEILDVPST) (Homo sapiens, UniProt P05556+P13612); test: Jurkat-CS-1 assay; conditions: read-out: JK/CS-1 (Jurkat CS-1 Assay IC50 value range); Jurkat cells on CS-1 peptide coated plates
Description: The CS-1 derived peptide, CLHPGEILDVPST, and the scrambled control peptide, CLHGPIELVSDPT, were synthesized on a Beckman 990 synthesizer using t-Boc methodology. The peptides were immobilized onto microtiter plates using the heterobifunctional crosslinker 3-(2-pyridyldithio)propionic acid N-hydroxysuccinimide ester (SPDP) as reported by Pierschbacher et al., Proc. Natl. Acad. USA, 80:1224-1227 (1983). Microtiter plates were coated with 20 μg/ml HSA for 2 hr. at room temperature, washed once with PBS and derivatized with 10 μg/ml SPDP for 1 hr. After washing, 100 μl of a 100 μg/ml cysteine containing peptide solution which had been recently dissolved was added to the wells and allowed to crosslink to the plates overnight at 4° C. Unbound peptide was removed from plates by washing with PBS. To block non-reacted sites, the plates are coated with 100 μl of a 2.5 mg/ml BSA solution in PBS for 1 hr. at 37° C. 100 μl of Jurkat cells (2.5×10^6 cells/ml) in DMEM plus BSA (2.5 mg/ml) was mixed with an appropriate concentration of the compound to be tested and the mixture was added to peptide coated dishes and incubated for 1 hr. at 37° C. Generally 100, 20, 5 and 1.25 μM concentrations of the compound were tested.
Following this incubation the plates were washed once with PBS and the attached cells were fixed with 3% paraformaldehyde in PBS and stained with 0.5% toluidine blue in 3.7% formaldehyde. The cells were stained overnight at room temperature and the optical density at 590 nm of toluidine blue stained cells was determined using a vertical pathway spectrophotometer to quantitate attachment (VMAX Kinetic Microplate Reader, Molecular Devices, Menlo Park, Calif.). This procedure is a modification of a previously published method (Cardarelli et al, J. Biol. Chem., 269:18668-18673 (1994) and Cardarelli et al, Proc. Natl. Acad. Sci. USA, 83:2647-2651 (1986)).

[3] = tested on: VLA-4 integrin-dependent eosinophil infiltration; test: Dextran pleurisy model (intrapleural dextran, pleural leukocyte infiltration); conditions: dose 50 × 2 iv; mouse, 4 h after intrapleural dextran
Description: Animals, Housing and Viral Testing:
C57BL/6 mice (Jackson, Bar Harbor, Me.), 6-8 weeks old, weighing 20-25 g were used throughout. All mice were acclimated for at least 7-14 days after arrival and maintained under controlled temperature (20-22° C.) and a 12 hr daily light cycle (6.00 A.M.-6.00 P.M.). Mice were housed in laminar flow racks and checked biweekly for viral infections (mouse hepatitis virus, minute virus of mice, rodent orphan parvovirus, Sendai) with kits obtained from Oreganon Teknika (Durham, N.C.) using established enzyme-linked immunoabsorbent assays. Mice testing positive for any of the above were omitted from the study. […]
Quantitation of Pleural Inflammatory Leukocyte Responses: […]
The pleural cavities of mice receiving either no intrapleural injection, or saline were washed and the cells counted in the same way to estimate baseline or saline-induced pleural leukocyte counts respectively. […]
The following compounds were tested for their inhibitory effects on dextran-induced leukocyte infiltration: Examples 3, 8, 9, 10, 12, 16, 37, 62, 66, 67, 99, 100, 111, 113, 115, 127, 131, 141, 184, 185, 192, PBS (saline) was administered iv. as a control. Inhibition of eosinophil infiltration, which was suppressed by anti-alpha-4 Mab (PS/2, 50%), was used as a readout of VLA-4 antagonist activity of the compounds tested. […]

Compound: O=C(O)c1cncc(C(=O)N2CCCC[C@@H]2C(=O)N[C@@H](Cc2ccc(NC(=O)c3c(Cl)cccc3Cl)cc2)C(=O)O)c1
- IC50 [1]: < 250 nM
- IC50 [2]: 50 to 750 nM

Compound: O=C(O)CCC(=O)N1CCCC[C@@H]1C(=O)N[C@@H](Cc1ccc(NC(=O)c2c(Cl)cccc2Cl)cc1)C(=O)O
- IC50 [2]: 50 to 750 nM

Compound: O=C(O)c1cncc(C(=O)N2CCCC[C@H]2C(=O)N[C@@H](Cc2ccc(NC(=O)c3c(Cl)cccc3Cl)cc2)C(=O)O)c1 [Example 172, 5-[[(2S)-2-[[[(1S)-1-Carboxy-2-[4-[(2,6-dichlorobenzoyl)amino]phenyl]ethyl]amino]carbonyl]-1-piperidinyl]carbonyl]-3-pyridinecarboxylic Acid]
- % Inhibition of Eosinophil infiltration (Eos) [3]: B (B: 20-39)
- IC50 [2]: < 50 nM
